The text below walks through data of paper PMC11582101, “Unlocking the potential: unveiling tyrphostins with Michael-reactive cyanoacrylate motif as promising inhibitors of human 5-lipoxygenase” (Pflugers Archiv, 2024).

Broadly, the IC50 is the concentration needed to halve the response being measured.

The assay concerns the target T1, 5-LO (Homo sapiens, UniProt P09917).
T1 sequence (P09917 1-674): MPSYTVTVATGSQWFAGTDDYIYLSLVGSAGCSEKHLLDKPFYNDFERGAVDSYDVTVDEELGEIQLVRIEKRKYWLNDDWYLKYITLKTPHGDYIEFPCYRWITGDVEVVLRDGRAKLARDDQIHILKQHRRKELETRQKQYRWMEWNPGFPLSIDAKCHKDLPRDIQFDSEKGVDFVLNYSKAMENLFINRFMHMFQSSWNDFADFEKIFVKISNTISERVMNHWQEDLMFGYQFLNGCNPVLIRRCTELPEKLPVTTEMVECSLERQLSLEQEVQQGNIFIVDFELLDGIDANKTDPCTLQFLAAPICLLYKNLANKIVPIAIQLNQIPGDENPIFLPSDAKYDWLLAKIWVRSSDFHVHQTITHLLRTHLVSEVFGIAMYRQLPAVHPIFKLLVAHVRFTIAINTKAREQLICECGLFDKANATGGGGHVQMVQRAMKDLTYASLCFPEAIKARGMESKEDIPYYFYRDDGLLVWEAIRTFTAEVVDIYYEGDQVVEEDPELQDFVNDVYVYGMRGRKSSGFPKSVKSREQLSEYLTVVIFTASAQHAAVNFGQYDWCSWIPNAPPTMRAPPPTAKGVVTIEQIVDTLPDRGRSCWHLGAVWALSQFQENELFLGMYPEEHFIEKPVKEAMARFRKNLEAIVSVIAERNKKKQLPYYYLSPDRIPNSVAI
Description: 5-LO product formation in intact PMNL. To be noted: read-out: IC50 for inhibition of 5-LO product formation, PMNL.

Turning to AG825, the IC50 was found to be 17 µM.
